Data set [1] has as its system thio-S4497 HC v1-MP-LAFG-PABC-(piperazinoBOR) AAC-193.
Data set [2] deals with thioFAB 4497 MP-LAFAA-QSY7.
Data set [3] deals with thioFAB 4497 MP-LAFGA-QSY7.

human cathepsin B displayed a Percent cleavage pH 5 in data set [1] of 100%. Besides, the Percent cleavage pH 7.2 in data set [1] was 64%; in data set [2], 100%; in data set [3], 100%.

Values taken from US20140356376.
